Read-outs that look alike come from different tables or passages of the source.
Target: T1, human ferroportin (Homo sapiens, UniProt Q9NP59)
T1 construct: expressed in transfected cells
T1 sequence (Q9NP59 1-571): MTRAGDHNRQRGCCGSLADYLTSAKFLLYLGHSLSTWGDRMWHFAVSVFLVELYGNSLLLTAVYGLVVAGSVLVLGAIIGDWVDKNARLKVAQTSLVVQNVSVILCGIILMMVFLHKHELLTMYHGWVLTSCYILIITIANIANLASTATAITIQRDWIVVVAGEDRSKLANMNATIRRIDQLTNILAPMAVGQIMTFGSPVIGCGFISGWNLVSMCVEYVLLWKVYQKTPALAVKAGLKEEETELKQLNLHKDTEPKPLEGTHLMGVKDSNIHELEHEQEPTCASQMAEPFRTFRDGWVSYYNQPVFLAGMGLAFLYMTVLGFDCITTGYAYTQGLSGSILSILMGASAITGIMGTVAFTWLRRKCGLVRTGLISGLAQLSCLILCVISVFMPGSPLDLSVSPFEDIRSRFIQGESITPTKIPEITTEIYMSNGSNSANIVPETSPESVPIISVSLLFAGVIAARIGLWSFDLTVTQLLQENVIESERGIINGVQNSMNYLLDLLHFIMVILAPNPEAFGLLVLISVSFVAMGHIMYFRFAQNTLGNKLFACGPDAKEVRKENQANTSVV
Type: cell-based
Details: read-out: Potency EC50
Experimental: Peptide analogues were tested in vitro for induction of internalization of the human ferroportin protein. Following internalization, the […] are degraded. The assay measures a decrease in fluorescence of the receptor.
The cDNA encoding the human ferroportin (SLC40A1) was cloned from a cDNA clone from Origene (NM_014585). The DNA encoding the ferroportin was amplified by PCR using primers also encoding terminal restriction sites for subcloning, but without the termination codon. The ferroportin receptor was subcloned into a mammalian GFP expression vector containing a neomycin (G418) resistance marker in such that the reading frame of the ferroportin was fused in frame with the GFP protein. The fidelity of the DNA encoding the protein was confirmed by DNA sequencing. HEK293 cells were used for transfection of the ferroportin-GFP receptor expression plasmid. The cells were grown according to standard protocol in growth medium and transfected with the plasmids using Lipofectamine (manufacturer's protocol, Invitrogen). […] The cells were propagated and frozen in aliquots.
Compound was added to desired final concentration for at least 18 hours in the incubator. […] Compound was added to desired final concentration for at least 18 hours but no more than 24 hours in the incubator.
A retro inverse peptide is a peptide with a reversed sequence in all D amino acids. An example is that Hy-Glu-Thr-His-NH2 becomes Hy-DHis-DThr-DGlu-NH2. The EC50 of these reference compounds for ferroportin degradation was determined according to the activity assay described above.

Substance	EC50 (Table 14) [nM]	EC50 (Table 11, reference compounds) [nM]
Isovaleric acid-DTHFPICIFGPRSK-[(m-PEG8)]-GWVC-NH2 [Cmpd4]	6.4	
Hy-DTHFPIC(1)IFC(2)C(3)GC(2)C(4)HRSKC(3)GMC(4)C(1)KT-OH [Hepcidin]	34	34
